Binding of CDR-mutated scFvs to a peptide of the spike HR2 region

From the AlphaSeq antibody data of Engelhart et al. 2022 (doi:10.1038/s41597-022-01779-4), copy in the FLAb collection.

Antigen: PDVDLGDISGINAS, a 14-residue peptide of the SARS-CoV-2 spike HR2 region.

Each scFv is VH, a 15-residue (Gly4Ser)3 linker, VL, as in the parent Ab-14, and differs from it in the CDRs of the heavy chain only.
VH: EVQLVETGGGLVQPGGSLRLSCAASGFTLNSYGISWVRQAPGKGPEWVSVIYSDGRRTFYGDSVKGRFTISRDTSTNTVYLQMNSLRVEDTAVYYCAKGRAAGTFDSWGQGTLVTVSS
VL: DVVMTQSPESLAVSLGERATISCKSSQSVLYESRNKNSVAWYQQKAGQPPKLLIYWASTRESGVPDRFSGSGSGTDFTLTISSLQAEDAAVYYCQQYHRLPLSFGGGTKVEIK

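The starting antibody came from a phage panning campaign against this peptide. Variants in AAYL49 differ from the parent at up to three CDR positions; double and triple changes were sampled at random. The scFvs were displayed on barcoded MATa yeast, the peptide on MATalpha yeast. After mating in shaken culture at 30 °C for 16 h, diploids were selected and their barcode pairs sequenced. A regression on co-assayed BCL2-family reference pairs converts the normalised counts of each replicate to an apparent Kd. Mating was done three times.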

The parent's heavy chain CDRs are GFTLNSYGIS, VIYSDGRRTFYGDSVK, GRAAGTFDS; each variant's own CDRs replace them letter for letter. This list gathers variants with a substitution at G99 (VH, numbered from residue 1). The Kd shown is the geometric mean over detected replicates; a lower Kd is a better binder. A pair that was not seen in any replicate is written "no signal"; this usually means weak binding, but a binder can also be missed.

With GFTLNGYGIS | VIYSDGRRSFYGDSVK | CRAAGTFDS the result was no signal (0 of 3 replicates). For GFTLNSYGIS | IIYSDGRRTFYGDCVK | MRAAGTFDS, the assay gave 5.9 µM (1 of 3 replicates). The variant GFTLNSYGIS | VIYSDGRRKFYGDSVK | NRAAGTADS showed 12 µM (3 of 3 replicates). For GFTLNSYGIS | VIYSDGRRTFYGDSVK | KRCNGTFDS, the assay gave 93 µM (2 of 3 replicates). The variant GFTLNSYGIS | VIYSDGRRTFYKDSVK | ARAAGTFCS gave no signal (0 of 3 replicates).

The variant GFNLNSYGIS | VIYSDGRRIFYGDSVK | MRAAGTFDS gave 330 µM (2 of 3 replicates). The variant GFTLNPWGIS | VIYSDGRRTFYGDSVK | SRAAGTFDS showed no signal (0 of 3 replicates). The variant GFTLNSYGIS | VIYSDGRRTFYRDSIK | LRAAGTFDS gave 130 nM (1 of 3 replicates). With GFTQNEYGIS | VIYSDGRRTFYGDSVK | LRAAGTFDS the result was 15 µM (2 of 3 replicates). The variant GFTLNSYGIS | VIYVDFRRTFYGDSVK | VRAAGTFDS gave no signal (0 of 3 replicates).

The variant GFTLNSYGIS | VIYSDGRRTFYGESVK | NRAARTFDS gave 87 nM (3 of 3 replicates). The variant GFTLNSYGIS | VIYSDGRWTFYGDSVK | WRAAGTFDS gave no signal (0 of 3 replicates). The variant GFTLNSYGIS | VIYSDGRRTFYGDSVK | QRAAGTFDS showed no signal (0 of 3 replicates). With GFTLNQYGIS | VIYSDGWRTFYGDSVK | DRAAGTFDS the result was 25 µM (1 of 3 replicates). With GFTLNSYGIS | VIYSCGRRTFYGDSVK | MGAAGTFDS the result was no signal (0 of 3 replicates).

With GFTLNSYGIS | VIYSDGRNTFYGDSVG | CRAAGTFDS the result was 100 µM (1 of 3 replicates). For GFTLNSYGIS | VIYSDGRRTFYGDSVK | PKAAGDFDS, the assay gave no signal (0 of 3 replicates). For GFTLSSYGIS | VIYSDGRREFYGDSVK | WRAAGTFDS, the assay gave no signal (0 of 3 replicates). The variant GFTLNSYGIP | VIYLDGRRTFYGDSVK | ERAAGTFDS gave no signal (0 of 3 replicates). For GFTLNSYGES | VIYSDGRRTFYGDSVK | WRATGTFDS, the assay gave no signal (0 of 3 replicates).

For GFTLNSYSIS | VIYSDGRRTHYGDSVK | QRAAGTFDS, the assay gave 15 µM (1 of 3 replicates). The variant GFTLNSYGWS | VIYSDGRRTFYGDSVK | HRAAGRFDS gave 29 µM (2 of 3 replicates). The variant GFTLNSYGIS | VIVSDGRRTFYGDSVK | ERAAGTFDS showed 34 µM (3 of 3 replicates). The variant GFTLNSGGIS | VIYSYGRRTFYGDSVK | ARAAGTFDS showed 2.8 µM (1 of 3 replicates). With GFTLNSYGIS | VIYSDWRRTFYGDSVL | PRAAGTFDS the result was no signal (0 of 3 replicates).

The variant GFTLNSVGIS | VIYSDGRRTFYGDSVK | FRAAETFDS gave 10 µM (2 of 3 replicates). The variant GFTLNSYGIS | VIYHDGRRTHYGDSVK | QRAAGTFDS showed no signal (0 of 3 replicates). The variant GFTLNMYGIS | VIWSDGRRTFYGDSVK | QRAAGTFDS showed no signal (0 of 3 replicates). With GWTLNSYGIS | VIYSDGRRTFYGDSVK | NRKAGTFDS the result was 160 µM (3 of 3 replicates). With GFTWNSYVIS | VIYSDGRRTFYGDSVK | FRAAGTFDS the result was no signal (0 of 3 replicates).

The variant GFPLNSYGIS | VIYSDGRRTFYGDSVK | MRAAGTFDN showed 11 µM (2 of 3 replicates). The variant EFTLNSYGIS | VIYSDGRRTFYGDSVK | KRAANTFDS showed 420 µM (2 of 3 replicates). For GFTLNSYGIS | VIYVDGRRTFYGDSVK | RRIAGTFDS, the assay gave 5.0 µM (3 of 3 replicates). With GFTLNSYGIS | VIYSDGRDTFYGDSVK | IRALGTFDS the result was 340 µM (1 of 3 replicates). For GFTLNSYGIS | VIYNDGRRTFYGDSVK | TRAAGTPDS, the assay gave no signal (0 of 3 replicates).

For GFTLNSYGIS | VIYSDGRRSFYGKSVK | TRAAGTFDS, the assay gave 1.1 mM (1 of 3 replicates). The variant GFTLNSYSIS | VIYSDGQRTFYGDSVK | CRAAGTFDS gave 57 µM (1 of 3 replicates). The variant GFTLNSYGIS | VIYSDGRRTFYEDSVK | RRAATTFDS gave 64 nM (3 of 3 replicates). The variant GFYLNSYGIS | VIYSDGRRTFYGDSVK | SRAAGTFDS gave no signal (0 of 3 replicates).

Repeated from above, the 4 best binders with a signal in all replicates:

The variant GFTLNSYGIS | VIYSDGRRTFYEDSVK | RRAATTFDS gave 64 nM (3 of 3 replicates).
The variant GFTLNSYGIS | VIYSDGRRTFYGESVK | NRAARTFDS gave 87 nM (3 of 3 replicates).
The variant GFTLNSYGIS | VIYVDGRRTFYGDSVK | RRIAGTFDS gave 5.0 µM (3 of 3 replicates).
The variant GFTLNSYGIS | VIYSDGRRKFYGDSVK | NRAAGTADS gave 12 µM (3 of 3 replicates).

Parent in this assay: reference entry 4.4 nM, copy in this library 13 µM (one replicate of three). Three control strains display no target. For library AAYL49, 15% of the pairings with them gave a signal, with a median of 11 µM and one signal in twenty below 680 nM, so weak values seen in few replicates may be background.